The values below come from patent US20170275298A1, “INHIBITORS OF THE RENAL OUTER MEDULLARY POTASSIUM CHANNEL” (Merck Sharp & Dohme Corp., priority 2014, published 2017).

The experiment has as its target T1, hROMK (hKir1.1) (Homo sapiens, UniProt P48048).
T1 construct: expressed in transfected cells
T1 sequence (P48048 1-391): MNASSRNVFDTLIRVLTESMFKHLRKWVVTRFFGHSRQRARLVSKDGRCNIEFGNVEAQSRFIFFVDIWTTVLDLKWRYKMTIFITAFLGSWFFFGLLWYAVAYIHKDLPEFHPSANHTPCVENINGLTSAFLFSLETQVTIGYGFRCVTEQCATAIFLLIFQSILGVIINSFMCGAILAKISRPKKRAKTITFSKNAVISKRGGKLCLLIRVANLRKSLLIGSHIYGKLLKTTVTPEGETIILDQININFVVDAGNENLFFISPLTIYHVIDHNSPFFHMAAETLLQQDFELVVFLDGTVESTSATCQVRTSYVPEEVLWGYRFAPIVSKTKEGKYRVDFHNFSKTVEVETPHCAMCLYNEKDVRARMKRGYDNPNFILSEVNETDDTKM
As to the kind of experiment: Thallium Flux Assay (ROMK channel functional thallium flux assay). Format: cell-based. Here is the method: The following Thallium Flux Assay was performed on each of the final product compounds in the Examples.
HEK293 cells stably expressing hROMK (hKir1.1) were grown at 37° C. in a 10% CO2 humidified incubator in complete growth media: Dulbecco's Modified Eagle Medium supplemented with non-essential amino acids, Penicillin/Streptomycin/Glutamine, G418 and FBS. At >80% confluency, the media was aspirated from the flask and rinsed with 10 mL calcium/magnesium-free PBS. […] To dislodge the cell, the side of the flask was gently banged with one's hand. The cells completely titrated and then the cells were transferred to 25 mL complete media, centrifuged at 1,500 rpm for 6 min followed by resuspension in complete growth media and determine cell concentration. […] Under ideal growth conditions and appropriate tissue culture practices, this cell line is stable for 40-45 passages.
• FluxOR™ Reagent (Component A) • FluxOR™ Assay Buffer (Component B)—10× Concentrate • PowerLoad™ Concentrate (Component C)—100× Concentrate • Probenecid (Component D)—Lyophilized sample is kept at −20° C. Water soluble, 100× after solubilization in 1 mL water. […] Store at 4° C. • Thallium sulfate (Tl2SO4) Concentrate (Component G)—50 mM in water. Store at 4° C. • DMSO (dimethyl sulfoxide, Component H)—1 mL (100%)
Can be stored at room temperature • Stimulant Buffer (prepared at 5× final concentration in 1×FluxOR™ Chloride-Free Buffer): 7.5 mM thallium sulfate and 0.75 mM potassium sulfate (to give a final assay concentration of 3 mM Thallium/0.3 mM potassium). Store at 4° C. when not in use. If kept sterile, this solution is good for months.
The ROMK channel functional thallium flux assay was performed in 384 wells, using the FLIPR-Tetra instrument. HEK-hKir1.1 cells were seeded in Poly-D-Lysine microplates and kept in a 37° C.-10% CO2 incubator overnight. On the day of the experiment, the growth media was replaced with the FluxOR™ reagent loading buffer and incubated, protected from light, at ambient temperature (23-25° C.) for 90 min. The loading buffer was replaced with assay buffer±test compound followed by 30 min incubation at ambient temperature, where the thallium/potassium stimulant was added to the microplate.
1. Seed HEK-hKir1.1 cells (50 μl at 20,000 cells/well) in 384-well PDL coated Microplates 2. Allow cells to adhere overnight in humidified 37° C./10% CO2 incubator 3. Completely remove cell growth media from microplate and replace with 25 μl loading buffer 4. […]
The fluorescence intensity of wells containing 3 μM of a standard control ROMK inhibitor of the present invention was used to define the ROMK-sensitive component of thallium flux. Fluorescence in the presence of test compounds was normalized to control values to provide % fluorescence change.

pIC50: −log10 of the molar value. Read-outs that look alike come from different tables or passages of the source.

As for `Cc1c([C@@H](O)CN2CCC3(CC2)CCN(c2cc(-c4ccccc4)ns2)C3=O)ccc2c1COC2=O` [Example 62, (R)-8-(2-hydroxy-2-(4-methyl-1-oxo-1,3-dihydroisobenzofuran-5-yl)ethyl)-2-(3-phenylisothiazol-5-yl)-2,8-diazaspiro[4.5]decan-1-one], the pIC50 (read-out: ROMK TI IC50) was 6.47.
With `Cc1c([C@@H](O)CN2CCC3(CC2)CCN(c2ccns2)C3=O)ccc2c1COC2=O` [Example 60, (R)-8-(2-hydroxy-2-(4-methyl-1-oxo-1,3-dihydroisobenzofuran-5-yl)ethyl)-2-(isothiazol-5-yl)-2,8-diazaspiro[4.5]decan-1-one], the negative logarithm of the IC50 (pIC50) is 8.28.
On to `Cc1c([C@@H](O)CN2CCC3(CC2)CCN(c2cnsn2)C3=O)ccc2c1COC2=O` [Example 75, (R)-8-(2-hydroxy-2-(4-methyl-1-oxo-1,3-dihydroisobenzofuran-5-yl)ethyl)-2-(1,2,5-thiadiazol-3-yl)-2,8-diazaspiro[4.5]decan-1-one], for which, where the note is “read-out: ROMK TI IC50”, the negative-log IC50 (pIC50) was 7.33.
For `Cc1c([C@@H](O)CN2CCC3(CC2)CCN(c2ncns2)C3=O)ccc2c1COC2=O` [Example 63, (R)-8-(2-hydroxy-2-(4-methyl-1-oxo-1,3-dihydroisobenzofuran-5-yl)ethyl)-2-(1,2,4-thiadiazol-5-yl)-2,8-diazaspiro[4.5]decan-1-one], the negative-log IC50 (pIC50) (read-out: ROMK TI IC50) was 6.89.
